What all share (assay type): functional
One assay concerns Staphylococcus aureus. Kind of assay: Antibacterial activity against Staphylococcus aureus ATCC 25923 after 48 hrs by microtiter broth dilution method. Particulars: ATCC 25923, 48 h.
For a further assay, the system named is Pseudomonas aeruginosa. Kind of assay: Antibacterial activity against Pseudomonas aeruginosa ATCC 27853 after 48 hrs by microtiter broth dilution method. Particulars: ATCC 27853, 48 h. Background: Broth dilution looks for growth in wells or tubes with falling amounts of substance.
The test system of another assay is Listeria monocytogenes. Kind of assay: Antibacterial activity against Listeria monocytogenes SOR 100 after 48 hrs by microtiter broth dilution method. Particulars: SOR 100, 48 h.
In another assay the test system is Escherichia coli. Kind of assay: Antibacterial activity against Escherichia coli ATCC 25922 after 48 hrs by microtiter broth dilution method. The settings on record: ATCC 25922, 48 h.

In brackets after ≈: the same amount, converted by molar mass.

Usually MIC stands for the smallest concentration in the dilution series that meets the test's criterion for growth inhibition. A lower MIC goes with greater potency. Take `CC[C@H](C)[C@H](NC(=O)CN)C(=O)NCC(=O)N[C@@H](C)C(=O)N[C@H](C(=O)N[C@@H](CC(C)C)C(=O)N[C@@H](CCCCN)C(=O)N[C@H](C(=O)N[C@@H](CC(C)C)C(=O)N[C@H](C(=O)N[C@H](C(=O)NCC(=O)N[C@@H](CC(C)C)C(=O)N1CCC[C@H]1C(=O)N[C@@H](C)C(=O)N[C@@H](CC(C)C)C(=O)N[C@H](C(=O)N[C@@H](CO)C(=O)N[C@@H](Cc1c[nH]c2ccccc12)C(=O)N[C@H](C(=O)N[C@@H](CCCCN)C(=O)N[C@@H](CCCNC(=N)N)C(=O)N[C@@H](CCCCN)C(=O)N[C@@H](CCCNC(=N)N)C(=O)N[C@@H](CCC(N)=O)C(=O)N[C@@H](CCC(N)=O)C(N)=O)[C@@H](C)CC)[C@@H](C)CC)[C@@H](C)O)[C@@H](C)O)C(C)C)C(C)C` [MELITTIN]: the MIC in the assay with Staphylococcus aureus came out at 25 µM (≈ 71.2 µg/mL); in the assay with Pseudomonas aeruginosa, 50 µM (≈ 142 µg/mL); with Listeria monocytogenes, 3.12 µM (≈ 8.88 µg/mL); against Escherichia coli, 6.25 µM (≈ 17.8 µg/mL).

The record behind these values is ChEMBL document CHEMBL2176932, “De novo cyclic pseudopeptides containing aza-β3-amino acids exhibiting antimicrobial activities” (J Med Chem, 2012).
